Results reported in US10544136B2, “Modulators of sphingosine phosphate receptors” (The Scripps Research Institute, priority 2008, dated 2020).

Chains of the proteins cited; added tags and fusions are not shown.
UniProt P21453, whole entry: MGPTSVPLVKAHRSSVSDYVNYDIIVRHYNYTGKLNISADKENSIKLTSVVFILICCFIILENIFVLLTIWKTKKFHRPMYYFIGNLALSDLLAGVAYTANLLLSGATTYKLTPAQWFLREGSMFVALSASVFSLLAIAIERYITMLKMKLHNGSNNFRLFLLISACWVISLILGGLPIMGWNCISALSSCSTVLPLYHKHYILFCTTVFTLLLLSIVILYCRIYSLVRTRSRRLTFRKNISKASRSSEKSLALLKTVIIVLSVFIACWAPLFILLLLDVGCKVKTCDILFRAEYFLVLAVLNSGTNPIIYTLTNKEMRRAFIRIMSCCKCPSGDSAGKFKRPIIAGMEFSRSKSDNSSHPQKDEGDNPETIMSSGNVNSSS

How the values were obtained:
[1] = target: T1, GFP-tagged human S1P1 receptor (S1P1-GFP) (Homo sapiens (Human), UniProt P21453); assay: Microscopy imaging of ligand-mediated S1P1-GFP internalization in HEK-293 cells; conditions: HEK 293-S1P1-GFP cells
[2] = target: T1, GFP-tagged human S1P1 receptor (S1P1-GFP); assay: Immunoprecipitation/immunoblotting for ligand-stimulated S1P1-GFP polyubiquitination in HEK-293 cells; conditions: HEK 293-S1P1-GFP cells

In the case of `CCOc1ccc(-c2nc(-c3ccncc3C)no2)cc1OCC`, the S1P1-GFP internalization [1] is reported as “robustly induces internalization” and the S1P1 polyubiquination [2] is reported as “robustly induces internalization and polyubiquination”.
